Measurements: publication PMC6765138 (Nucleic Acids Research, 2019)

By UniProt entry, the sequences of proteins in these tests, tags left out. Residues count along the entry.
UniProt O06581, 81-486: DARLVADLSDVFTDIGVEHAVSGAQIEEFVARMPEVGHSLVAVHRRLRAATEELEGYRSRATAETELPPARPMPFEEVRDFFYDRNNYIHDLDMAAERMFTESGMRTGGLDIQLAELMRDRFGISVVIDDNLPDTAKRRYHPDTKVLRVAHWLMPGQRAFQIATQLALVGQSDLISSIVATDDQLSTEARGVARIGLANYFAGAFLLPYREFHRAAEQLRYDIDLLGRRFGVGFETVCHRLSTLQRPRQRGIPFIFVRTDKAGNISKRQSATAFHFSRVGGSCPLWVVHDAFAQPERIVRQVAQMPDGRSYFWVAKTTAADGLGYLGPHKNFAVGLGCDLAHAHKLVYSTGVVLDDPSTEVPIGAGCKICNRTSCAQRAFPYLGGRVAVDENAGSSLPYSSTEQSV

Target: T1, MtPrpR81–486 (Mycobacterium tuberculosis, UniProt O06581)
T1 construct: gene prpR

[S]12[Fe]3[S]4[Fe]1[S]1[Fe+]2[S]3[Fe+]41 [[4Fe4S] cluster]
X-ray crystal structure; UV-visible spectrum; ICP-MS; EPR: The cubane-type [4Fe4S] cluster resides in the C-terminal region
